# According to PubChem BioAssay AID1817 (Sanford-Burnham Center for Chemical Genomics, 2009):
# Chains of the proteins cited; added tags and fusions are not shown.
# UniProt Q8IUQ4, whole entry: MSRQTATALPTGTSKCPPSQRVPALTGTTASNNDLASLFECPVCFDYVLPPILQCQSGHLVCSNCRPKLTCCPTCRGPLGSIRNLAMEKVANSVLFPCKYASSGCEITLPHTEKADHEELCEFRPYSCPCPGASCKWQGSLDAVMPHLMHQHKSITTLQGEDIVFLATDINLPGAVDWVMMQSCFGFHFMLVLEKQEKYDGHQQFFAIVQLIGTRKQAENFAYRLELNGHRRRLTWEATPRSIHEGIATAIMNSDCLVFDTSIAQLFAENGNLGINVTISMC
# UniProt Q15149, whole entry partner: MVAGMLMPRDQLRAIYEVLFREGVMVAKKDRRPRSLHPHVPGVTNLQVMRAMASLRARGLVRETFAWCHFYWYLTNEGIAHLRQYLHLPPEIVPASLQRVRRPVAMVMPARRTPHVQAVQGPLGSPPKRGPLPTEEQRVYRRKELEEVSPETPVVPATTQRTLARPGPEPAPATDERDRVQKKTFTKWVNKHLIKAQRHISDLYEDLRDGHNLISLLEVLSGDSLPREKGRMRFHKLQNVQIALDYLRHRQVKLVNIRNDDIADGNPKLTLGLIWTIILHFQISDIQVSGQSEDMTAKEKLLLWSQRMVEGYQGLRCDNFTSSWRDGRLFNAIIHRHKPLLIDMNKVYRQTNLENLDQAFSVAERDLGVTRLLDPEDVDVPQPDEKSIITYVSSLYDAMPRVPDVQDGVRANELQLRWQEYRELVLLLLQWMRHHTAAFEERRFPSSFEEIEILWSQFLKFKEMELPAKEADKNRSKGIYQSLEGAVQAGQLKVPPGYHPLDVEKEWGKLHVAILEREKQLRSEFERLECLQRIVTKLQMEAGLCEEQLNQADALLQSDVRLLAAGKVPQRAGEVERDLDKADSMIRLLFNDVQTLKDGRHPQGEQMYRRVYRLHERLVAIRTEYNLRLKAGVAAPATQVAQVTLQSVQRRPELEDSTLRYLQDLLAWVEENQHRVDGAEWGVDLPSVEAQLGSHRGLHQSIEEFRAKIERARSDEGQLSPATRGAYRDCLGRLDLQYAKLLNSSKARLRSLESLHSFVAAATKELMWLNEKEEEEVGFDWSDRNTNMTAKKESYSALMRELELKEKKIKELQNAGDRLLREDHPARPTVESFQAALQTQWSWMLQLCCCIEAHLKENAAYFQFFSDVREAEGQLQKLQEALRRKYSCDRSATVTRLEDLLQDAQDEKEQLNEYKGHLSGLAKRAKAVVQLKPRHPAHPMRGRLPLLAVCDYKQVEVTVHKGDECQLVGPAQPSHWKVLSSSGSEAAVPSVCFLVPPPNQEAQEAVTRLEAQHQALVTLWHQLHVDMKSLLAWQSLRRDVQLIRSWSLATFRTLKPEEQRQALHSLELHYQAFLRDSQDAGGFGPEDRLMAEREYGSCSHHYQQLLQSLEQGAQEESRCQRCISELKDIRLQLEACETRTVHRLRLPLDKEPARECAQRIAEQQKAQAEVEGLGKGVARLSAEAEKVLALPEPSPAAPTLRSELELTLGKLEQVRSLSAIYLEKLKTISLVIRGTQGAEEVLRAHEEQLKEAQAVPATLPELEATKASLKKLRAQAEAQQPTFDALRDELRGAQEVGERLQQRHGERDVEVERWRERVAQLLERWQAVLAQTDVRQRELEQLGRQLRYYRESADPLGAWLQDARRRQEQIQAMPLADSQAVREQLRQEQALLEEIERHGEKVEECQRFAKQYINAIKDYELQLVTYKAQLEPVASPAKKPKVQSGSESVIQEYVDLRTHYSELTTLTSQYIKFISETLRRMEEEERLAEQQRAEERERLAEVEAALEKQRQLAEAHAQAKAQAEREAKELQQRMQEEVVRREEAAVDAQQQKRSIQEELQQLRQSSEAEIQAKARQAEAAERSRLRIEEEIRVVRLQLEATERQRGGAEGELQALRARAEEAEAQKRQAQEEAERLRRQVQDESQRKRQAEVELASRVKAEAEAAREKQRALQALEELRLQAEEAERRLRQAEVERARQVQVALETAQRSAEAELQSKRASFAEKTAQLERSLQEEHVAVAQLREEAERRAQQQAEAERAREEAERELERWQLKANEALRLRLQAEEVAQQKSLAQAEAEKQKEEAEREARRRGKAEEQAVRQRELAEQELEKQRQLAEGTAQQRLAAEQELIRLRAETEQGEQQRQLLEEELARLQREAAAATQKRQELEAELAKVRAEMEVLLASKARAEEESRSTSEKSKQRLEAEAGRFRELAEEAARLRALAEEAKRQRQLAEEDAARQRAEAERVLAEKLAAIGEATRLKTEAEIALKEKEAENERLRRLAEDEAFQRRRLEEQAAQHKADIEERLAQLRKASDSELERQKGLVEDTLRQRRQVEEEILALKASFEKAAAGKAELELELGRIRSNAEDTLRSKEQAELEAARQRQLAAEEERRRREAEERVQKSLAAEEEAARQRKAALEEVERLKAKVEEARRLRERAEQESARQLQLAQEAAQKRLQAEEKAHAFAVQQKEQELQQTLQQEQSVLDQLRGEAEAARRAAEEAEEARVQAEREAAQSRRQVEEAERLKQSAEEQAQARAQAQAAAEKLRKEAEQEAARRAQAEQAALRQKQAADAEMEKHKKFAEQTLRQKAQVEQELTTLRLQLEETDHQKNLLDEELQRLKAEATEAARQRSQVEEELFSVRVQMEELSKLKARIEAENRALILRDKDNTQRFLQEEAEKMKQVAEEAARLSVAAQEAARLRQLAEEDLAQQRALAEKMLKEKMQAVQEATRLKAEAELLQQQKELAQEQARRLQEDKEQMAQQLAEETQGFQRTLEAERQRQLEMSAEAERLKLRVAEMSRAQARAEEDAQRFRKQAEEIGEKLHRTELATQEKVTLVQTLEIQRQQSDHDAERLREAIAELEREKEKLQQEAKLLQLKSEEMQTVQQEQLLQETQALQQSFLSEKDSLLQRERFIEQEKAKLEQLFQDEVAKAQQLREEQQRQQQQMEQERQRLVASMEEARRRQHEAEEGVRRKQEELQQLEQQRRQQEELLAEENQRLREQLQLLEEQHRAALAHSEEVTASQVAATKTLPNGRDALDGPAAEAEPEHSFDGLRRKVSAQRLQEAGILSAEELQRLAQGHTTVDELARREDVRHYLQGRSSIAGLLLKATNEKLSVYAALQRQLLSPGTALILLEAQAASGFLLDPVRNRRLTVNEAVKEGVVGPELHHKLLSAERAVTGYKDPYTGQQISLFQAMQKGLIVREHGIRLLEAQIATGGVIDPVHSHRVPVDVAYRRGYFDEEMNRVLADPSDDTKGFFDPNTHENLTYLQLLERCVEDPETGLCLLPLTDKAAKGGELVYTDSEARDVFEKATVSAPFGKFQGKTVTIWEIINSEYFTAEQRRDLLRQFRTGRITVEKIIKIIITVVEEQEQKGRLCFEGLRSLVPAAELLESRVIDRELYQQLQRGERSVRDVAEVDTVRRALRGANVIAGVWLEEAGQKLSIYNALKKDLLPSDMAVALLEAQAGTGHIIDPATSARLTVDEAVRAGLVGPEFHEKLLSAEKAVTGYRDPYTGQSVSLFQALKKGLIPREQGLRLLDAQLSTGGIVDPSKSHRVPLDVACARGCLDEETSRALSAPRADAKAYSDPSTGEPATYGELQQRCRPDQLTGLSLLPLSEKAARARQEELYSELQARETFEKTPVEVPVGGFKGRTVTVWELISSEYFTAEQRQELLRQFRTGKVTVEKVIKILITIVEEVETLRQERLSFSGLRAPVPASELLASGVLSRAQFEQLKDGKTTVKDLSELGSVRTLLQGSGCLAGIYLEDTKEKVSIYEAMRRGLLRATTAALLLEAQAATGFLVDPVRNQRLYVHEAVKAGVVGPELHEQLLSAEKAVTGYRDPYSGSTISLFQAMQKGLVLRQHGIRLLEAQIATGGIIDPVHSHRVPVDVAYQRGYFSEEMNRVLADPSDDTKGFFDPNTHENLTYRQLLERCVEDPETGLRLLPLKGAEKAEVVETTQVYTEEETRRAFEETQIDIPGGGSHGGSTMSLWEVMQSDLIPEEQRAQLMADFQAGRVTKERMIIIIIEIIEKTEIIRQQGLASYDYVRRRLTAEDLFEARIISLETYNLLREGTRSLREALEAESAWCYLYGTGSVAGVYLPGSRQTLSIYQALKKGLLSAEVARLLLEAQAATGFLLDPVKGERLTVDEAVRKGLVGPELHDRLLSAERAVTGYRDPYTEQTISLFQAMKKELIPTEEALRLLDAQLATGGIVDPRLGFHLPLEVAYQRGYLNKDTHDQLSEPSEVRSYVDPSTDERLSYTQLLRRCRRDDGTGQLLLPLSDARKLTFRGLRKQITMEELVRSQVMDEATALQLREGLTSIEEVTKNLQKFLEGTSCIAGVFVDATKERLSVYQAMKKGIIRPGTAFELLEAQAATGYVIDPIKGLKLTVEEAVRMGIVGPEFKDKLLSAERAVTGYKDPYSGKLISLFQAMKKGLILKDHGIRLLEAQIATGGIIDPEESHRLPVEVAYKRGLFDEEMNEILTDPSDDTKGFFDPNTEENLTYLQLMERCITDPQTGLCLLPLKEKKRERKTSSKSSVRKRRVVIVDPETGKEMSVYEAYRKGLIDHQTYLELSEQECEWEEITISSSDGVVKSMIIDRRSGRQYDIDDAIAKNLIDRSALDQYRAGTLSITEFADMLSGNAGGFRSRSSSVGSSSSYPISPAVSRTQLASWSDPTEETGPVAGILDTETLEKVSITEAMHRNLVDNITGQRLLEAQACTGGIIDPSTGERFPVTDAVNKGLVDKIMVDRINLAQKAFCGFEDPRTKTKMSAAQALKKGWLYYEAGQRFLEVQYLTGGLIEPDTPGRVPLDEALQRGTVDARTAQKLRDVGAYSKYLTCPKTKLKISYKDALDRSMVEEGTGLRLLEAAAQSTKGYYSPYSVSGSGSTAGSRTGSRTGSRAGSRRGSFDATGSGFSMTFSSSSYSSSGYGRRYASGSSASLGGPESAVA
# This is a selection; strong and weak results do not stand in their true shares. Results with a measured potency or affinity are listed apart. Some results for these compounds are left out of this collection, so the calls shown say nothing about other tests. Active and inactive are the calls of the source.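 Rule for the calls: active = displacement of at least 50% at 20 µM, with a fluorescence ratio check between 0.3 and a set limit; inactive = the rest.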
# Target: E3 ubiquitin-protein ligase SIAH1 (Homo sapiens) (UniProt Q8IUQ4)
# Test: Siah-1 peptide-binding antagonists, primary screen, biochemical, fluorescence polarization, rhodamine-plectin, uHTS (AID 1817);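 note: plate controls were Siah plus tracer with DMSO for no effect and tracer alone without Siah for full effect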
# Details: Siah-1 / rhodamine-plectin peptide fluorescence polarization; at 20 µM; hits give high values
row,Compound,displacement
1,CN1[C@@H]2CC[C@H]1CC(OC(=O)C(O)(c1ccccc1)c1ccccc1)C2 (some centres undefined),inactive: 5.5%
2,O=C(NCC1(N2CCCCC2)CCCCC1)c1cc([N+](=O)[O-])ccc1Cl,inactive: 0.9%
3,Cc1ccc(C(=O)NCC2(N3CCCCC3)CCCCC2)cc1,inactive: 9.6%
4,CC(C)N1C(=O)CC2(CCN(CCOC(=O)C(O)(c3ccccc3)c3ccccc3)CC2)C1=O,inactive: 1.5%
5,CCN(CC)CC(C)C(C)OC(=O)C(O)(c1ccccc1)c1ccccc1 (centres undefined),inactive: 5.9%
6,COc1cc(SC)ccc1C(=O)NCC1(N(C)C)CCCCC1,inactive: 3%
7,Cc1ccccc1C(=O)NCC1(N2CCCCC2)CCCCC1,inactive: 1.6%
8,CN(C)C1CCCC1OC(=O)C(O)(c1ccccc1)c1ccccc1 (centres undefined),inactive: -0.7%
9,CN(C)c1ccc(C(=O)NCC2(N(C)C)CCCCC2)cc1,inactive: 8.2%
10,Cc1cc(C(=O)NCC2(N3CCCCC3)CCCCC2)ccc1[N+](=O)[O-],inactive: -3.1%
11,CCN1CCCC(OC(=O)C2(O)c3ccccc3C=Cc3ccccc32)C1 (centres undefined),inactive: 7.8%
12,O=C(NCC1(N2CCCCC2)CCCCC1)c1cccc(Br)c1,inactive: -0.2%
13,COc1ccc(C(=O)NCC2(N(C)C)CCCCC2)cc1,inactive: -2.3%
14,C=CCN1CCN(CCOC(=O)C(O)(c2ccccc2)c2ccccc2)CC1,inactive: -0.5%
15,O=C(NCC1(N2CCCCC2)CCCCC1)c1cc(F)c(F)cc1Cl,inactive: 6.4%
16,COc1cc(C(=O)NCC2(N(C)C)CCCCC2)c([N+](=O)[O-])cc1OC,inactive: -6.1%
17,CN(C)C1(CNC(=O)c2ccc(Br)cc2)CCCCC1,inactive: -3.6%
18,O=C(NCC1(N2CCCCC2)CCCCC1)c1cccc(Cl)c1,inactive: -1.2%
19,COc1cccc(C(=O)NCC2(N3CCCCC3)CCCCC2)c1,inactive: -4.8%
20,COc1ccc(Cl)cc1C(=O)NCC1(N(C)C)CCCCC1,inactive: 5.6%
21,O=C(OC1CN2CCC1CC2)C(CO)(c1ccccc1)c1ccccc1 (centres undefined),inactive: -0.3%
22,CN(C)c1cccc(C(=O)NCC2(N(C)C)CCCCC2)c1,inactive: -1%
23,CC(C)Oc1ccc(C(=O)NCC2(N(C)C)CCCCC2)cc1,inactive: -0.2%
24,COc1ccc(Br)c(C(=O)NCC2(N3CCCCC3)CCCCC2)c1,inactive: -1.2%
